## Ab-14 heavy chain CDR variants: yeast mating affinities

Data: MIT Lincoln Laboratory AlphaSeq set, Li et al. 2023, doi:10.1038/s41467-023-39022-2, as distributed in FLAb.

Binding partner: SARS-CoV-2 spike HR2 peptide, sequence PDVDLGDISGINAS.

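The parent was found by panning a naive human phage display library on the peptide. The variants were designed computationally from a first round of random CDR variants and then made and measured. Several design methods are mixed in this list. Affinity was read by AlphaSeq, a pooled yeast mating assay with surface-displayed partners. Pairs that bind mate more often; barcode pairs of the diploids are counted by sequencing. Read counts were normalised to the haploid input and turned into Kd by a linear fit to BCL2-family pairs of known affinity, for each replicate. Mating was done six times.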

Parent scFv Ab-14: VH joined to VL by a (GGGGS)3 linker. Changes lie in the heavy chain CDRs alone.
VH: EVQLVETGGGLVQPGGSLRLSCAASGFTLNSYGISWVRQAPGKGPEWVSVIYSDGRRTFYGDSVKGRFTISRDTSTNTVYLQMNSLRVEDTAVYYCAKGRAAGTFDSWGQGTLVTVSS
VL: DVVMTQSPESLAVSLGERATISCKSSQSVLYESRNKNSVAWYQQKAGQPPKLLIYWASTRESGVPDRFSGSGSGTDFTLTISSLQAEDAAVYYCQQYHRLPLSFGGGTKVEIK

Variants are written as CDR1, CDR2 and CDR3 of the heavy chain (limits as in the source). Parent: GFTLNSYGIS, VIYSDGRRTFYGDSVK, GRAAGTFDS.
Values are log10 of the apparent Kd in nM; lower means stronger binding.
Averages over replicates are reported, and they cover detected replicates only.
A pair that was not seen in any replicate is written "no signal"; this usually means weak binding, but a binder can also be missed.
Where one sequence has several entries in the source, the replicates are pooled.
Values of this round are not directly comparable with the first-round values of the same sequences.
The authors' rule: three or more of the six replicates give a measured affinity, fewer mean a poor binder.
As a blank, each scFv also met three strains without target: over all heavy chain designs, 1% of these pairings were detected, typically at 2.08 and seldom below 0.84.

CDR-H1,CDR-H2,CDR-H3,"log10 Kd (nM), mean",seen in
GFDLNEYGIS,VIYADGKRTAYADSVK,GQVAGTFDV,-1.01,6/6
GFDLNSYGIS,VIYSDGRRTFYGDSVK,GRNAGTFDK,0.67,6/6
GDGLSEYGIS,VIYADGFRTSYANDVK,GTAAGGFMV,no signal,0/6
GFTVNSYGIS,VIYSDGRRTFYGDSVK,GKAAGTFDS,2.01,2/6
GFNLNEYGIS,VIYADGRRTFYADSVK,GEIAGTFIV,0.30,6/6
GFTLNSYGIS,VIYSDGRRTFYSDSVK,VRAGGTFDS,2.01,1/6
GFWLNDYGIS,VIYSDGRRTFYADSVK,GRTAGTFDS,0.57,6/6
GYTLNSYGIS,VIYSDGRRTFYGDSVK,GREAGTFDS,1.85,4/6
GFDLNDYGIS,VIYADGRRTFYADSVK,GEVAGTFDI,0.16,6/6
GFGLNEYGIS,VIYSDGRRTFYHDSVK,GRAAVTFDQ,1.53,1/6
GFDLNEYGIS,VIYADGRRTFYADSVK,GNLAGTFDL,-0.80,6/6
GFDLNEYGIS,VIYADGRRTFYADSVK,GEAAGTFTL,no signal,0/6
GFDLNEYGIS,VIYADGKRTAYADSVK,GGEAGTFDV,-0.26,6/6
GFMLNSYGIS,VHYSDGRRTFYDDSVK,GRAAGTFDS,no signal,0/6
GFTLNAYGIS,VIYSDGRRTFYSDSVK,GEAAGTFDK,0.50,5/6
GFTLNSYGIS,VIYSDGRRTFYGDNVK,GQTAGTFDT,1.23,6/6
GFDLNEYGIS,VIYADGRRTFYTDSVK,GQLAGTFDD,-0.63,6/6
GFNLDEYGIS,VIYADGMRTQYKDQVK,GNLKAHNMT,no signal,0/6
GFDLDEYGIS,VIYADGRRTAYADSVK,GTNAGTFDA,0.00,6/6
GFTLNSYGIS,VIYSDGRRTFYGDSVV,GRASGTFDT,no signal,0/6
GFDLNEYGIS,VIYADGRRTNYTDSVK,GTNAGTFDM,0.95,6/6
GFTLNSYGIS,VIKSSGRRTFYDDSVK,GQLAGTFDS,no signal,0/6
GFNLNEYGIS,VIYADGMRTFYADKAK,GNAGIVVEV,no signal,0/6

Second part, the sequence after the result:

"log10 Kd (nM), mean",seen in,CDR-H1,CDR-H2,CDR-H3
0.22,6/6,GFSLNSYGIS,VIYSDGQRTFYKDSVK,GRTAGTFDS
-0.44,6/6,GFDLNEYGIS,VIYADGRRTAYIDSVK,GEIAGTFDN
no signal,0/6,GFSLNSYGIS,VIYSDGRRTFYSDSVK,GRAAVTFDS
1.27,6/6,GFTLNDYGIS,VIYSDGRRTFYGDSVK,GRQAGTFES
0.00,6/6,GFDLNEYGIS,VIYADGMRTAYADSVK,GDNAGTFDI
no signal,0/6,GFDLNDYGIS,VIYADGRRTFYADSVK,GEHAGTFDI
0.96,6/6,GFDLNEYGIS,VIYADGVRTAYSDSVK,GNTAGTFDL
-0.36,6/6,GFDLNEYGIS,VIYADGKRTAYSDSVK,GNVAGTFDI
-1.37,6/6,GFDLESYGIS,VIYADGKRTAYADSVK,GNVAGTFDS
1.30,1/6,GFQLNSYGIS,VIYSDGRRTFYADSVK,GQVAGTFDL
1.01,1/6,GHTLNSYGIS,VIYSDGMRTFYVDSVK,GRAAGTFDS
0.05,12/12,GFDLNSYGIS,VIYSDGRRTFYSDSVK,GRAAGTFDS
0.58,6/6,GFMLNSYGIS,VIYSDGRRTFYADSVK,GQTAGTFDS
-0.56,6/6,GFNLDEYGIS,VIYADGRRTAYADSVK,GNVAGTFDI
1.52,5/6,GFDLNSYGIS,VIYSDGRRTFYVDQVK,GRTAGTFDS
0.45,6/6,GFTLNEYGIS,VIYSDGRRTFYDDSVK,GRFAGTFDS
-0.15,6/6,GFDLNSYGIS,VIYSDGRRTFYADSVK,GLTAGTFDS
-0.25,6/6,GFDLNTYGIS,VIYSDGRRTFYGDSVK,GREAGTFDS
1.97,3/6,GFVLNSYGIS,VIYSDGRRTFYGDSVK,GQTAGTFDS
no signal,0/6,GFHLNSYGIS,VIYSDGRRTFYGDSVK,GRAIGTFDS
no signal,0/6,GFSIDEYGIS,VIYADGNRSAYIDAVK,GNWGSDFLE
2.51,1/6,GFALNSYGIS,VIYSDGRRVFYGDRVK,GRAAGTFDS
1.77,4/6,GFILDEYGIS,VIYADGQRSAYKDSVK,GVDDANGVI
-0.68,5/6,GFDLDEYGIS,VIYADGVRTAYADNVK,GNVAGTFDL

Excerpt, the final 6 entries:

CDR-H1,CDR-H2,CDR-H3,"log10 Kd (nM), mean",seen in
GFVLNSYGIS,VIYSDGRRTFYGDSVK,GQTAGTFDS,1.97,3/6
GFHLNSYGIS,VIYSDGRRTFYGDSVK,GRAIGTFDS,no signal,0/6
GFSIDEYGIS,VIYADGNRSAYIDAVK,GNWGSDFLE,no signal,0/6
GFALNSYGIS,VIYSDGRRVFYGDRVK,GRAAGTFDS,2.51,1/6
GFILDEYGIS,VIYADGQRSAYKDSVK,GVDDANGVI,1.77,4/6
GFDLDEYGIS,VIYADGVRTAYADNVK,GNVAGTFDL,-0.68,5/6